This note sets out measurements from ChEMBL document CHEMBL1131316, “Potent antagonists of somatostatin: synthesis and biology” (J Med Chem, 1998).

By UniProt entry, the sequences of proteins in these tests, tags left out. Where a name states a change or a piece, a line headed by the entry shows the natural chain unless it says otherwise.
UniProt P31391: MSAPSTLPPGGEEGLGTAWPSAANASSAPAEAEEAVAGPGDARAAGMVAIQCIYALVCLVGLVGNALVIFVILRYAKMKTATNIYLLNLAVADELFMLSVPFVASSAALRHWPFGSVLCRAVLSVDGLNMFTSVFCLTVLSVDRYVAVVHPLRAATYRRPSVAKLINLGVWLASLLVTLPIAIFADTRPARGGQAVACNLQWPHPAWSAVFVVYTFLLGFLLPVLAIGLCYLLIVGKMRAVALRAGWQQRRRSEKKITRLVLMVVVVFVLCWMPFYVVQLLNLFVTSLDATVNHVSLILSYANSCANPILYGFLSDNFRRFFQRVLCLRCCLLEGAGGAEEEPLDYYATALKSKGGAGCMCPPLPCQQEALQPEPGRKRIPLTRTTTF

This assay has as its target Somatostatin receptor type 4 (Homo sapiens, UniProt P31391). The experiment in a line: Binding affinity towards cloned human somatostatin 4 (hsst) receptor.

Usually IC50 stands for the concentration that gives 50% inhibition. A higher IC50 goes with a need for much substance. Molecule `C[C@@H](O)[C@@H]1NC(=O)[C@H](CCCCN)NC(=O)[C@@H](Cc2c[nH]c3ccccc23)NC(=O)[C@H](Cc2ccccc2)NC(=O)[C@H](Cc2ccccc2)NC(=O)[C@H](N)CSSC[C@H](C(N)=O)NC(=O)[C@H](Cc2ccccc2)NC1=O` registered a 50% inhibitory concentration (IC50) of 406 nM.
